Reference: patent US20030119895A1, “Methods using a combination of a 3-heteroaryl-2-indolinone and a cyclooxygenase-2 inhibitor for the treatment of neoplasia” (Pharmacia Corporation, priority 1998, published 2003)
Where “and” joins values, the source holds several entries; their conditions need not be identical. Equal values may be shown once. Read-outs that look alike come from different tables or passages of the source.

Conditions: for body wt Average: group average; for body wt: individual mouse
[1] = Group 5, SU-5416 50 mpkd, Day 0, day of injection
[2] = Group 5, SU-5416 50 mpkd, Day 7
[3] = Group 5, SU-5416 50 mpkd, Day 10
[4] = Group 5, SU-5416 50 mpkd, Day 14
[5] = Group 5, SU-5416 50 mpkd, Day 17
[6] = Group 5, SU-5416 50 mpkd, Day 21
[7] = Group 5, SU-5416 50 mpkd, Day 31

With `Cc1cc(C)c(C=C2C(=O)Nc3ccccc32)[nH]1` the “body wt Average” value (Group 2, SU5416 25 mg/kg/day s.c., Day 0, day of injection) was 26.91, the body wt (Group 2, SU5416 25 mg/kg/day s.c., Day 0, day of injection, 25 mg/kg/day) was 28.71 and 26.6 and 24.24 and 25.48 and 26.36 and 22.53 and 29.41 and the “body wt Average” value (Group 2, SU5416 25 mg/kg/day s.c., Day 7) was 27.70. The body wt (Group 2, SU5416 25 mg/kg/day s.c., Day 7, 25 mg/kg/day) was 29.59 and 27.28 and 24.61 and 27.54 and 23.83 and 30.4, the body wt (Group 2, SU5416 25 mg/kg/day s.c., Day 10, 25 mg/kg/day) was 30.14 and 27.48 and 24.19 and 28.31 and 24.22 and the “body wt Average” value (Group 2, SU5416 25 mg/kg/day s.c., Day 14) was 26.84. For the same compound, the body wt (Group 2, SU5416 25 mg/kg/day s.c., Day 14, 25 mg/kg/day) was 29.47 and 23.54 and 27.08 and 29.41, the “body wt Average” value (Group 2, SU5416 25 mg/kg/day s.c., Day 17) was 25.93 and the body wt (Group 2, SU5416 25 mg/kg/day s.c., Day 17, 25 mg/kg/day) was 26.16 and 23.34 and 31.49 and 23.48 and 25.66 and 29.34. The “body wt Average” value (Group 2, SU5416 25 mg/kg/day s.c., Day 21) was 25.25, the body wt (Group 2, SU5416 25 mg/kg/day s.c., Day 21, 25 mg/kg/day) was 28.31 and 25.2 and 31.41 and 23.29 and 24.3 and 28.9 and the “body wt Average” value (Group 2, SU5416 25 mg/kg/day s.c., Day 24) was 24.57. For the same compound, the body wt (Group 2, SU5416 25 mg/kg/day s.c., Day 24, 25 mg/kg/day) was 27.88 and 30.13, the “body wt Average” value (Group 2, SU5416 25 mg/kg/day s.c., Day 31) was 24.16 and the body wt (Group 2, SU5416 25 mg/kg/day s.c., Day 31, 25 mg/kg/day) was 22.69 and 27.38 and 27.9 and 23.36 and 29.73. For the same compound, the “body wt Average” value (Group 2, SU5416 25 mg/kg/day s.c., Day 35) was 24.26, the body wt (Group 2, SU5416 25 mg/kg/day s.c., Day 35, 25 mg/kg/day) was 26.84 and 23.55 and 30.55 and 22.47 and 27.58 and the “body wt Average” value [1] was 26.43. For the same compound, the body wt [1] was 26.74 and 25.91 and 26.14 and 27.7 and 27.87 and 28.26 and 22.8, the “body wt Average” value [2] was 28.38 and the body wt [2] was 27.85 and 27.13 and 28.82 and 29.12 and 29.67 and 28.34 and 27.09. The “body wt Average” value [3] was 28.80, the body wt [3] was 29.2 and 27.93 and 27.67 and 28.95 and 29.52 and 30.71 and 28.54 and 27.84 and the “body wt Average” value [4] was 27.38. For the same compound, the body wt [4] was 27.6 and 27.47 and 25.89 and 27.54 and 27.7 and 29.06 and 27.27 and 26.48, the “body wt Average” value [5] was 26.28 and the body wt [5] was 26.78 and 26.26 and 24.3 and 26.57 and 26.39 and 27.92 and 26.1 and 25.89. For the same compound, the “body wt Average” value [6] was 25.60, the body wt [6] was 26.09 and 26.64 and 23.59 and 25.64 and 26.74 and 25.2 and the body wt (Group 5, SU-5416 50 mpkd, Day 24) was 24.36 and 25.64 and 24.93 and 26.23 and 25.24. The “body wt Average” value [7] was 24.71, the body wt [7] was 23.48 and 25.06 and 22.49 and 22.54 and 24.94 and 26.64 and 26.47 and the body wt (Group 5, SU-5416 50 mpkd, Day 35) was 25.06 and 25.86 and 22.4 and 23.59 and 23.51 and 27.79 and 26.37 and 25.74.
